The results in this text go back to patent publication US6627664B2, “Perylenequinones for use as sonosensitizers” (Altachem Pharma Ltd., priority 2001, dated 2003).

Marks after values point to notes of the source that are not given here.

Series [1] is described as follows: Light absorption properties (red spectral region, 630 nm). In kind it is physicochemical. The settings on record: for A630: absorbance at 630 nm.
The nature of series [2]: Singlet oxygen (1O2) yield. In kind it is physicochemical.
A further series concerns cells. The settings on record: without light. An excerpt: As used herein, “photopotentiation factor” refers to the property of the compound(s) to exert light- or sound-mediated toxicity in excess of its (their) inherent unactivated toxicity. […] Where the term “LD50” has been used above, the term “IC50” may be substituted, to address the bioassays that concern metabolic activity rather than the endpoint of lethality, loss of reproductive capability, or clonogenic death. The relative photoactivation efficiency of a compound may also be determined using a clonogenic assay, an assay that is well known to those skilled in the art.
In accordance with the present invention, a desirable PQP derivative is one that is non-toxic (or of low toxicity) at high drug concentrations without activation, i.e., without light (also referred to as “dark”), and/or without sound, and is toxic at low concentrations when light of the appropriate wavelength, or sound of the appropriate frequency, is applied. As is recognized by those skilled in the art, the most desirable compounds are those that provide a wide range of non-toxic doses in an unactivated state, as this characteristic provides an increased safety factor for the patient.

As to Methylamine-HB [HBMA-IV], in series [1], the “Abs. Peak in red Spectral region” value came to 640 nm, the “Extinction Coefficient (× 10^−3) (630 nm)” value is recorded as 2.46 × 10^−3 and the A630 is reported as 0.246. Further, the Amax/solvent in series [1] (solvent CHCl3) is reported as 0.246/CHCl3. For the same substance, the “^1O2 Yield” value in series [2] came to 0.80. The “LD50 Dark” value in the series on cells was 8.5 µM.

In the case of Ethylenediamine-HB [HBED-R2], in series [1], the “Abs. Peak in red Spectral region” value is reported as 614* nm, the “Extinction Coefficient (× 10^−3) (630 nm)” value is 12.39 × 10^−3 and the A630 was determined as 1.239. In series [1] (solvent DMSO), the Amax/solvent was 1.449/DMSO. Besides, the “^1O2 Yield” value in series [2] amounted to 0.50. For the same substance, the “LD50 Dark” value in the series on cells was over 25 µM.

For the substance “2-(N,N-diethyl-amino) ethylamine-HB [HBDD-R2]”, the “LD50 Dark” value in the series with cells was over 25 µM.
